Literature values in patent publication US7592457B2 (Korea Research Institute of Chemical Technology, priority 2004, dated 2009).

Chains of the proteins cited; added tags and fusions are not shown.
UniProt P50406, whole entry: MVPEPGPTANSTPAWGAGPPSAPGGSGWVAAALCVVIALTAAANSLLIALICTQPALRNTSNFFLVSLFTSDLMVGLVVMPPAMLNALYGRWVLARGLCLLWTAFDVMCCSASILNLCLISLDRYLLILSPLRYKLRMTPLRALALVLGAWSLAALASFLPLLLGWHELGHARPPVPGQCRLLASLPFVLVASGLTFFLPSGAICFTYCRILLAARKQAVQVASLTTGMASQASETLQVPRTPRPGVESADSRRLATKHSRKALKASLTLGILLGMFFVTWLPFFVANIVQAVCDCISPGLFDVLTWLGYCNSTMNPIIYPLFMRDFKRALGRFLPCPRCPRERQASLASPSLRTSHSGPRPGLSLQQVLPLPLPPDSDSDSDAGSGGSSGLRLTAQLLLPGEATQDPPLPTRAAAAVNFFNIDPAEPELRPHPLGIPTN

Experiments:
5-HT6 receptors [1] = target: T1, 5-HT6 receptors (Homo sapiens, UniProt P50406); conditions: literature, cited from earlier work
[2] = test system: 50 other receptor/binding sites; conditions: literature; cited from earlier work
5-HT6 receptors [3] = target: T1, 5-HT6 receptors; conditions: antagonist of cAMP accumulation, literature; cited from earlier work
[4] = literature; cited from earlier work

## COc1ccc(NS(=O)(=O)c2ccc(Br)cc2)cc1N1CCN(C)CC1
5-HT6 receptors [1]; 5-HT6 receptors
  Ki: 5 nM
5-HT6 receptors [1]
  selectivity over 10 other 5-HT receptors: > 50 fold
[2]
  affinity for 50 other receptor/binding sites: no measurable affinity
5-HT6 receptors [3]
  pKb: 7.8
[4]
  bioavailability (in words): low bioavailability
  brain penetrant: 25%
  clearance (in words): rapid blood clearance
